Antibody variant affinities, Ab-91 heavy chain, assay 2

Source: Engelhart et al. 2022 (doi:10.1038/s41597-022-01779-4), MIT Lincoln Laboratory and A-Alpha Bio; data file from the FLAb repository.

Target: peptide PDVDLGDISGINAS, taken from heptad repeat 2 (HR2) of SARS-CoV-2 spike.

Parent: Ab-91, a human scFv built as VL, a 15-residue (Gly4Ser)3 linker, VH. Only the CDRs of the heavy chain vary.
VL: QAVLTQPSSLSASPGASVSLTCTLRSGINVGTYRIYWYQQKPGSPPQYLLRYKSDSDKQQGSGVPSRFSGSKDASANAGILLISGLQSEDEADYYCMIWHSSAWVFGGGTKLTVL
VH: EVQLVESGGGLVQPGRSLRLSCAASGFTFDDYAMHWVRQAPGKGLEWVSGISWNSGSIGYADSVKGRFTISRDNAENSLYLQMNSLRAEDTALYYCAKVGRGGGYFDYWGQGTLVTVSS

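Phage display of a naive human antibody library on the peptide gave the parent. Library AAYL51 holds single substitutions and randomly drawn double and triple substitutions in the CDRs. The assay is AlphaSeq: two haploid yeast populations carry antibody and antigen on their surface. After mating in shaken culture at 30 °C for 16 h, diploids were selected and their barcode pairs sequenced. Each replicate has its own calibration line, from reference interactions of the BCL2 family. Mating was done three times.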

The parent's heavy chain CDRs are GFTFDDYAMH, GISWNSGSIGYADSVK, VGRGGGYFDY; each variant's own CDRs replace them letter for letter. The read-out is the apparent dissociation constant on a log10 scale (nM): the lower, the stronger. Averages over replicates are reported, and they cover detected replicates only. An entry "n.d." has no value in the source: the pair was not observed among the diploids in that replicate. This suggests poor binding but is not conclusive. Parent in this assay: reference entry 1.86, copy in this library 0.88. As a blank, each scFv also met three strains without target: over library AAYL51, 21% of these pairings were detected, typically at 4.54 and seldom below 3.26. Also given: how often the same scFv was detected with the empty control strains, with their mean in brackets.

CDR-H1	CDR-H2	CDR-H3	replicates, log10 nM	log10 Kd (nM), mean	empty controls
GFTFDDIAMH	GASWNSGSIGYADSVK	VQRGGGYFDY	n.d. / n.d. / 4.40	4.40	0 of 9
GFTFDDYAMH	GISWNSCSFGYADSVK	VGRGGGYFDF	1.87 / 2.44 / 2.08	2.13	0 of 9
GFTFDDYAMH	GISWNSGYIGYADSVK	VCRLGGYFDY	n.d. / n.d. / n.d.	n.d.	0 of 9
HFTADDYAMH	GISWNSGSIGYADSVK	VGRGGMYFDY	n.d. / n.d. / n.d.	n.d.	1 of 9 (2.94)
GFTFDDYTMH	GHSWNSGSIGYADSVK	VNRGGGYFDY	n.d. / n.d. / n.d.	n.d.	0 of 9
GFTFDDYAMH	GISWNLGSIGYADSSK	VGRGGTYFDY	4.44 / n.d. / n.d.	4.44	0 of 9
GFTFDDYAMH	GPSWNSGSIGYTDSVK	VGRGMGYFDY	n.d. / 4.42 / n.d.	4.42	2 of 9 (3.97)
GFTFDDYAMH	GCSWNSGSIGYADSVE	VGRGGGYFDN	n.d. / n.d. / n.d.	n.d.	2 of 9 (3.88)
GFTFDVYAPH	GDSWNSGSIGYADSVK	VGRGGGYFDY	n.d. / 3.58 / n.d.	3.58	0 of 9
GFTFDDYAMH	GITWNSGSIGYADMVK	VGRGGGYFDY	3.60 / 3.24 / 3.71	3.52	2 of 9 (4.49)
GFTFSDYAMH	GIRWNSGSIGYADSVK	VGRGYGYFDY	4.62 / n.d. / n.d.	4.62	6 of 9 (4.87)
GFTFDDYAMH	GISWNSGSRGYADSVK	VGDGGGYVDY	3.11 / n.d. / n.d.	3.11	1 of 9 (4.18)
GFTFDDCAMH	GISWNVGSIGYADSVK	VGNGGGYFDY	5.34 / n.d. / n.d.	5.34	2 of 9 (4.43)
GFTFQDYAMH	GISWNSGSIGYCDSVK	VGRGGGYFYY	2.27 / 2.13 / 1.28	1.89	1 of 9 (3.94)
GFTFDDYAMH	GISWNSGSIGYATSVW	VGRGGGNFDY	2.97 / n.d. / 3.74	3.35	0 of 9
GFTFDDYAMH	GFSWNQGSIGPADSVK	VGRGGGYFDY	n.d. / n.d. / n.d.	n.d.	0 of 9
GFTKDQYAMH	GIEWNSGSIGYADSVK	VGRGGGYFDY	n.d. / n.d. / n.d.	n.d.	2 of 9 (4.44)
GFTFDDYAMH	GISWNSGSIGYPDSVK	YGGGGGYFDY	4.36 / n.d. / n.d.	4.36	1 of 9 (4.76)
GFTFDDYAMH	GISWNSGSIIGADSVK	VGRGGLYFDY	n.d. / 3.79 / n.d.	3.79	3 of 9 (4.18)
GFTFQPYAMH	GISWNSGSIGYADKVK	VGRGGGYFDY	n.d. / n.d. / n.d.	n.d.	1 of 9 (4.53)
GFTFDDYADH	GSSWNSGSIGYADSVS	VGRGGGYFDY	n.d. / n.d. / n.d.	n.d.	1 of 9 (5.26)
GFTFDDYASH	GISWNSGSIGYAASVK	VGRCGGYFDY	n.d. / 5.49 / n.d.	5.49	3 of 9 (4.32)
GFTFDFYAMH	GISWNSGSIGYADRVK	VGRGGGYFMY	n.d. / 4.53 / n.d.	4.53	2 of 9 (3.72)
GFTFDDYAMH	GISWYSGFIGYADSVK	VGRDGGYFDY	n.d. / n.d. / 2.83	2.83	0 of 9
GFWFDHYAMH	GISWNSGSIGYADSVK	VGRGGGYFHY	2.13 / 2.09 / 1.76	1.99	5 of 9 (4.44)
GFTFDDYSMH	GISWNSGSIGYADSVK	VGLGGGYVDY	0.92 / 0.99 / 0.32	0.74	5 of 9 (5.82)
GFTFDDYAMH	GNHWQSGSIGYADSVK	VGRGGGYFDY	4.88 / n.d. / n.d.	4.88	5 of 9 (5.09)
GFTFDDYAMH	GISWNSGSINYAKSYK	VGRGGGYFDY	n.d. / 2.96 / n.d.	2.96	1 of 9 (5.60)
GFEFDDYAMH	GISLNSGSIGYADSVK	VARGGGYFDY	4.50 / n.d. / n.d.	4.50	1 of 9 (4.70)
GFTFDDYAML	GISWNSGSITYADSVK	VGRGGGYFDY	5.35 / n.d. / n.d.	5.35	3 of 9 (4.50)
GFTFDEYAHH	GISWNSGSIGYADSVK	VGRGGYYFDY	3.80 / n.d. / n.d.	3.80	0 of 9
GFTFDDYAMH	GISWNSGSIGYADGVK	VGRGGGNPDY	1.05 / 0.98 / 0.40	0.81	2 of 9 (5.10)

4 of these entries, quoted again:

CDR-H1	CDR-H2	CDR-H3	replicates, log10 nM	log10 Kd (nM), mean	empty controls
GFTFDDYAMH	GPSWNSGSIGYTDSVK	VGRGMGYFDY	n.d. / 4.42 / n.d.	4.42	2 of 9 (3.97)
GFTFDDYAMH	GNHWQSGSIGYADSVK	VGRGGGYFDY	4.88 / n.d. / n.d.	4.88	5 of 9 (5.09)
GFTFDDYAMH	GISWNLGSIGYADSSK	VGRGGTYFDY	4.44 / n.d. / n.d.	4.44	0 of 9
GFTFDDYAML	GISWNSGSITYADSVK	VGRGGGYFDY	5.35 / n.d. / n.d.	5.35	3 of 9 (4.50)